Consider one compound from ChEMBL document CHEMBL6177950, “Discovery of potent and selective CDK2 inhibitors with high safety and favorable bioavailability for the treatment of cancer” (Eur J Med Chem, 2025).

A short description of assay [1]: Selectivity index, ratio of IC50 for CDK1/Cyclin A2 (unknown origin) to IC50 for CDK2/Cyclin E1 (unknown origin).
Assay [2] can be described thus: Selectivity index, ratio of IC50 for CDK4/Cyclin D1 (unknown origin) to IC50 for CDK2/Cyclin E1 (unknown origin).
Assay [3] is described as follows: Selectivity index, ratio of IC50 for CDK6/Cyclin D2 (unknown origin) to IC50 for CDK2/Cyclin E1 (unknown origin).

Turning to `CCC(C)n1cc(-c2nc(NC3CCN(S(=O)(=O)C4CC4)CC3)ncc2F)cc(F)c1=O` (stereo not drawn), the Ratio IC50 was 15 in assay [1], above 100 in assay [2] and above 100 in assay [3].
